Reference: patent US20030022283A1

Sequences of proteins named here, by UniProt entry; tags and fusion partners are left off. A change or cut given only in a name is not applied to a line headed by its entry. A line that says so, or that is headed by a name, gives the form on record, which may keep a tag or linker.
UniProt Q63447: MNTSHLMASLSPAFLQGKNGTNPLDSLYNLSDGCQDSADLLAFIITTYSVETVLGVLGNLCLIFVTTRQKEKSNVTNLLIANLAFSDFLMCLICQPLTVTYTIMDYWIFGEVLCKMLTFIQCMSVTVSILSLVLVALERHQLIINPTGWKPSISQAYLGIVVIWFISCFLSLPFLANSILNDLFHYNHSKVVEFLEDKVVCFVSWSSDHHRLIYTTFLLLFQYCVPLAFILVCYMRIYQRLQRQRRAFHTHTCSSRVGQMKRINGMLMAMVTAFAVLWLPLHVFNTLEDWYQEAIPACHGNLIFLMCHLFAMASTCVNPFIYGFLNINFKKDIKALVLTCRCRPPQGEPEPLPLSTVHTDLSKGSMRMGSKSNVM
UniProt Q15761: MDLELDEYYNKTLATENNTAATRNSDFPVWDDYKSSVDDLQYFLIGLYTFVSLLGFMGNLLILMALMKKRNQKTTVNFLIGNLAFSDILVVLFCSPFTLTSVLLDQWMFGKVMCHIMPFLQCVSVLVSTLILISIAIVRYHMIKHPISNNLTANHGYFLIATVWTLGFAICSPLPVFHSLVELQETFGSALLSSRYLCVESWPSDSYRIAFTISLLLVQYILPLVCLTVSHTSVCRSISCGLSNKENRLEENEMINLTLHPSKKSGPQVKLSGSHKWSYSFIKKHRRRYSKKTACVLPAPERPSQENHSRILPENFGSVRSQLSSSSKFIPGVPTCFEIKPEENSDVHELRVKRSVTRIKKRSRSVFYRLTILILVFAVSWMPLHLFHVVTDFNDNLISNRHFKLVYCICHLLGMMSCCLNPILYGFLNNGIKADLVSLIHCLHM
UniProt P21555, whole entry: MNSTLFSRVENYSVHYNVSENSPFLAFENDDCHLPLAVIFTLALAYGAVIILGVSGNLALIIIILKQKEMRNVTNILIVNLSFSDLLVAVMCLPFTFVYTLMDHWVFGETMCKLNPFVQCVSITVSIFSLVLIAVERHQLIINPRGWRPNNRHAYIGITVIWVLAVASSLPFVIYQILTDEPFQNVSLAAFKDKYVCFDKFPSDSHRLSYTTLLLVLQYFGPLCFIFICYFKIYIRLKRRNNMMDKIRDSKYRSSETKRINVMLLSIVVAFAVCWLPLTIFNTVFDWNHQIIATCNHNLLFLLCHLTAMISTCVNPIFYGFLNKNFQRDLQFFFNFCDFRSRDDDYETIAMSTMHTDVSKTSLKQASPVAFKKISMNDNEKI
UniProt Q9ERC0, entry or part of it limits assumed, form in doubt: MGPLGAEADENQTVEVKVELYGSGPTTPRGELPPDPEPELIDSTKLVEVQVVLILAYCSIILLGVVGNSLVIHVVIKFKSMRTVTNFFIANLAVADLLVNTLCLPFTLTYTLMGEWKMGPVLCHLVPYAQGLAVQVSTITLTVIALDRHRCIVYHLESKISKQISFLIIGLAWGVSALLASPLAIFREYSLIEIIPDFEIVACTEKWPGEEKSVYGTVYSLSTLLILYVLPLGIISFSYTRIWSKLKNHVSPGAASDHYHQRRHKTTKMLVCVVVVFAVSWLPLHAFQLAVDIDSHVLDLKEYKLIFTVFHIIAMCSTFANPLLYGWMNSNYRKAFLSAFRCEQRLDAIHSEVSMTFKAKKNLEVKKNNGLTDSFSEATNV

Columns and labels:
[1] = molecular target: Rat NPY Y5 receptor, Y555 clone (rat) (UniProt Q63634); experiment: competition with [125I]PYY, membranes of transiently transfected COS-7 cells
[2] = molecular target: Rat NPY Y5 receptor, 6B clone (Y217.24.13.6B) (rat) (UniProt Q63634); experiment: as above
[3] = molecular target: Rat Y4/PP1 receptor (clone) (rat) (UniProt Q63447); experiment: competition with rat [125I]PP, rat Y4/PP1 clone
[4] = molecular target: T1, Rat NPY Y5 receptor, Y861 clone (rat) (UniProt Q63634); experiment: competition with [125I]PYY, membranes of stably transfected 293S cells
T1 sequence: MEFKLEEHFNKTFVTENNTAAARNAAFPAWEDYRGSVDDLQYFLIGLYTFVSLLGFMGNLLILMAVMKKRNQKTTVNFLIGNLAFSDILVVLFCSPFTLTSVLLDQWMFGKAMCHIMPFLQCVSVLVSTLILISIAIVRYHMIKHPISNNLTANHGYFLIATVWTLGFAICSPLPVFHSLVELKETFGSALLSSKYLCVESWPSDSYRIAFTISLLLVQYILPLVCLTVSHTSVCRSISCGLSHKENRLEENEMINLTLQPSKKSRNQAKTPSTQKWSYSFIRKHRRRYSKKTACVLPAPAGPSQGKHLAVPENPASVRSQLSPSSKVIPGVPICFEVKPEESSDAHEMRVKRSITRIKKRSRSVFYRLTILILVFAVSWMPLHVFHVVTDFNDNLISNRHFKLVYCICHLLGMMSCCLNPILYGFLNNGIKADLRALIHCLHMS

[5] = molecular target: T1, Rat NPY Y5 receptor, Y861 clone (rat); experiment: competition with [125I]PYY, rat Y5 Y861 clone
[6] = molecular target: Human NPY Y5 receptor (human) (UniProt Q15761); experiment: competition with [125I]PYY, membranes of stably transfected 293 cells
[7] = molecular target: Rat NPY Y1 receptor (clone) (rat) (UniProt P21555); experiment: competition with [125I]PYY, rat Y1 clone
[8] = molecular target: Rat NPY Y2 receptor (clone) (rat) (UniProt Q9ERC0); experiment: competition with [125I]PYY, rat Y2 clone
[9] = molecular target: Human NPY Y5 receptor (human) (UniProt Q15761); experiment: competition with [125I]PYY, membranes of transiently transfected cells
[10] = molecular target: T1, Rat NPY Y5 receptor, Y861 clone (rat); experiment: cell-based or functional assay
[11] = molecular target: Human NPY Y5 receptor (human) (UniProt Q15761); experiment: cell-based or functional assay

IC50 [1] [µM] | Ki [2] [µM] | IC50 [3] [µM] | Ki [4] [µM] | IC50 [5] [µM] | Ki [6] [µM] | IC50 [7] [µM] | IC50 [8] [µM] | Ki [9] [µM] | EC50, forskolin-stimulated adenylate cyclase (cAMP radioimmunoassay), stably transfected 293S cells [10] [µM] | EC50, forskolin-stimulated adenylate cyclase (cAMP radioimmunoassay), stably transfected 293 cells [11] [µM] | Substance
0.303 | 0.194 | 0.159 | 0.061 | 0.326 |  |  |  |  |  |  | porcine (18-36)NPY (from UniProt P01304 27-45) (peptide)
 |  |  |  |  | 0.0045 |  |  |  |  |  | (3-36)PYY (species not stated, Table 2) (peptide)
0.0036 | 0.0019 |  |  | 0.0022 |  | 0.045 | 0.00067 | 0.0104 |  |  | porcine (3-36)NPY (from UniProt P01304 12-45) (peptide)
0.073 | 0.011 |  |  |  |  |  |  |  |  |  | rat (13-36)NPY (as printed in Table 1) (from UniProt P07808 42-65) (peptide)
 |  |  | 0.0029 | 0.0034 | 0.0031 | 0.044 | 0.154 |  | 0.031 | 0.023 | rat/human (Leu31Pro34)(3-36)NPY (from UniProt P01303 31-64) (peptide)
